Only a part is listed here, and it is no random draw. Records with an inconclusive call do not appear. Calls of active or inactive are those of the source. The call rests on the fitted dose curve; in most records, active means well fitted inhibition curve with a large enough effect; inconclusive means small, poorly fitted or top-dose-only effect; inactive means flat fitted curve, though single readings scatter.
The compounds below were run against N-terminal Xaa-Pro-Lys N-methyltransferase 1 (Homo sapiens) (UniProt Q9BV86) (assay: Primary qHTS for Inhibitors of N-terminal methyltransferase 1 (NTMT1): MTaseGlo Assay). Details: NTMT1 MTase-Glo SAH luminescence, purified enzyme.
Excerpt: Assay Submitter (PI): Rong Huang Ph.D.
Purdue University, West Lafayette, IN 47907
The N-terminal methytransferase 1 is the first methyltransferase that methylates protein alpha-N-amines and plays an important role in regulating cell mitosis, chromatin interactions and DNA repair. It is observed to be over-expressed in various cancer patient tissues like malignant melanoma and colorectal cancer tissues. Knockdown of NTMT1 in cancer cells causes cell mitotic defects and enhances sensitivity to DNA damaging chemotherapeutics. […] These critical cellular processes in which NTMT1 is implicated, coupled with emerging links to cellular dysfunction, strengthen the inference that NTMT1 is a compelling novel anticancer target. […] To address this unmet need, a panel of assay is created and established to enable quantitative high-throughput screening (qHTS) for novel, potent, and selective small molecule NTMT1 inhibitors. […]
MTaseGlo Assay is a luminescence screen that measure the activity of methyltransferases based on the reaction product S-adenosyl homocysteine (SAH). […]
8; Reagent; 5 uL; Dispense 5 uL of 1x MTase-Glo Detection Solution (R) to allow for ADP to be converted to ATP which was then detected with a luciferase reaction. […]
11; Detection; Luminescence; Plates were read on ViewLux detector (PerkinElmer). […]
Further: nearly all actives have a fitted effect of over 65% in size.
Potency means the concentration at half of the fitted maximal effect.

Protein sequences, listed by entry. Tags and fused reporters are not part of them.
UniProt Q9BV86, whole entry: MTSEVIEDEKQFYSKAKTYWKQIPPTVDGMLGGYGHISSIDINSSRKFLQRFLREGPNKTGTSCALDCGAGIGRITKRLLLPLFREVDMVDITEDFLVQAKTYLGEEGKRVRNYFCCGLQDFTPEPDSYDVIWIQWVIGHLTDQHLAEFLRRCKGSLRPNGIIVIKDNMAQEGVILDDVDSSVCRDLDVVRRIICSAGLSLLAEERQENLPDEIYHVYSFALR

| SMILES | Potency |
| --- | --- |
| C/C1=C2N=C(/C=C3N=C(/C(C)=C4\[N-][C@@](C)([C@@H]5N=C1[C@](C)(CCC(=O)NC[C@@H](C)OP(=O)([O-])O[C@H]1[C@@H](O)[C@@H](n6cnc7cc(C)c(C)cc76)O[C@@H]1CO)[C@H]5CC(N)=O)[C@@](C)(CC(N)=O)[C@@H]4CCC(N)=O)[C@@](C)(CC(N)=O)[C@@H]\3CCC(N)=O)C(C)(C)[C@@H]/2CCC(N)=O.[C-]#N.[Co+3] | active: 28.2 µM |

Source: PubChem BioAssay AID1645870 (National Center for Advancing Translational Sciences (NCATS), 2021)
